Assay results: US7737141B2, “Prodrug of cinnamide compound” (Eisai R&D Management Co., Ltd., priority 2006, dated 2010)

Test: Solubility test: apparent solubility in test solutions, HPLC-UV
Format: physicochemical
Experimental: Several milligram of each compound to be tested was precisely weighed, and 0.1 to 1.3 mL of the following test solutions were each added to the compound. The resulting mixture was stirred for several tens of seconds to several minutes for dispersing or dissolving the compound. Then, the supernatant was collected by centrifugation or filtration through a membrane. The concentration of the compound in the supernatant was quantitatively measured by an HPLC-UV method as an apparent solubility of the compound to each test solution.
pH 5: Diluted Mcllvaine buffer solution (KANTO Chemical Co. Inc.)
pH 7: GIBCO™ Dulbecco's phosphate-buffered saline (Invitrogen Corporation)

3-{4-{(S)-4-[(S)-1-(2,6-difluoropyridin-3-yl)ethyl]-6-methyl-3-oxomorpholin-(2Z)-ylidenemethyl}-2-methoxyphenyl}-5-methyl-1-phosphonooxymethyl-3H-imidazol-1-ium chloride [Example 7]
Solubility at pH 5 (pH 5: Diluted Mcllvaine buffer solution): >10 mg/mL | Solubility at pH 7 (pH 7: Dulbecco's phosphate-buffered saline): >10 mg/mL
